# Measured affinities in a library of Ab-95 light chain variants

Data: MIT Lincoln Laboratory AlphaSeq set, Engelhart et al. 2022, doi:10.1038/s41597-022-01779-4, as distributed in FLAb.

The target is the same throughout: PDVDLGDISGINAS, from the HR2 region of SARS-CoV-2 spike.

Parent scFv Ab-95: VH joined to VL by three GGGGS repeats. Changes lie in the light chain CDRs alone.
VH: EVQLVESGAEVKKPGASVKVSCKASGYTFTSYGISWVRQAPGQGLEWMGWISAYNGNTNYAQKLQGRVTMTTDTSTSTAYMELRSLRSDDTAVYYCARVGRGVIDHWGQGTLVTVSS
VL: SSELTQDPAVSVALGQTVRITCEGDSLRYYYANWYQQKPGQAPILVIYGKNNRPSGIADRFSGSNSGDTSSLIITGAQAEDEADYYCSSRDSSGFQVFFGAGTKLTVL

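Phage display of a naive human antibody library on the peptide gave the parent. The library (AAYL52) carries one to three amino acid substitutions per variant, with no insertions or deletions. Affinity was read by AlphaSeq, a pooled yeast mating assay with surface-displayed partners. The frequency of each diploid, read from paired DNA barcodes, reflects how well the two displayed proteins bind. The ratio of observed to expected reads was calibrated, replicate by replicate, on BCL2-family standards whose Kd was known from biolayer interferometry. Mating was done three times.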

Changes read parent residue, position, new residue, counted from the first residue of the VL shown. The Kd shown is the geometric mean over detected replicates; a lower Kd is a better binder. A pair that was not seen in any replicate is written "not detected"; this usually means weak binding, but a binder can also be missed. Order: sorted from the lowest average up, undetected variants last.

{"changes": "Y29D+Y31S+S92T", "apparent Kd": "10 nM", "replicates with signal": "3 of 3"}
{"changes": "D25R+L27V+S55G", "apparent Kd": "110 nM", "replicates with signal": "3 of 3"}
{"changes": "E23R+F95P+V97G", "apparent Kd": "260 nM", "replicates with signal": "3 of 3"}
{"changes": "S26D+L27R+A32T", "apparent Kd": "450 nM", "replicates with signal": "3 of 3"}
{"changes": "R28D+S89I+S92Q", "apparent Kd": "480 nM", "replicates with signal": "3 of 3"}
{"changes": "S26I+R28M+G94C", "apparent Kd": "760 nM", "replicates with signal": "1 of 3"}
{"changes": "E23K+Y30L+S89D", "apparent Kd": "780 nM", "replicates with signal": "3 of 3"}
{"changes": "L27F+Y29S+Y31K", "apparent Kd": "1.5 µM", "replicates with signal": "2 of 3"}
{"changes": "E23R+S89L+Q96W", "apparent Kd": "2.2 µM", "replicates with signal": "3 of 3"}
{"changes": "R53W+P54T+G94A", "apparent Kd": "4.1 µM", "replicates with signal": "1 of 3"}
{"changes": "N33M+S88N+S93I", "apparent Kd": "5.7 µM", "replicates with signal": "2 of 3"}
{"changes": "K50C+S89F+S93E", "apparent Kd": "25 µM", "replicates with signal": "3 of 3"}
{"changes": "R53P+S89M+R90L", "apparent Kd": "26 µM", "replicates with signal": "1 of 3"}
{"changes": "Y30I+N51H+R53M", "apparent Kd": "59 µM", "replicates with signal": "1 of 3"}
{"changes": "G24F+N33K+F98W", "apparent Kd": "73 µM", "replicates with signal": "1 of 3"}
{"changes": "E23K+G49R+F95H", "apparent Kd": "not detected", "replicates with signal": "0 of 3"}
{"changes": "D25V+S26F+A32E", "apparent Kd": "not detected", "replicates with signal": "0 of 3"}
{"changes": "G24K+A32R+G49M", "apparent Kd": "not detected", "replicates with signal": "0 of 3"}
{"changes": "G24T+N33A+N51L", "apparent Kd": "not detected", "replicates with signal": "0 of 3"}
{"changes": "E23I+R53E+V97P", "apparent Kd": "not detected", "replicates with signal": "0 of 3"}

Top 2 of the variants detected in all replicates, tightest first:

{"changes": "Y29D+Y31S+S92T", "apparent Kd": "10 nM", "replicates with signal": "3 of 3"}
{"changes": "D25R+L27V+S55G", "apparent Kd": "110 nM", "replicates with signal": "3 of 3"}

As a blank, each scFv also met three strains without target: over library AAYL52, 28% of these pairings were detected, typically at 8.2 µM and seldom below 800 nM. Parent in this assay: reference entry 200 nM, copy in this library 180 nM.